Reference: ChEMBL document CHEMBL1124788, “Conformation-activity relationship study of 5-HT3 receptor antagonists and a definition of a model for this receptor site” (J Med Chem, 1990)

Protein sequences, listed by entry. Tags and fused reporters are not part of them. Lines headed by an entry give the natural chain unless they say otherwise; changes in a name come on top.
UniProt Q9JHJ5: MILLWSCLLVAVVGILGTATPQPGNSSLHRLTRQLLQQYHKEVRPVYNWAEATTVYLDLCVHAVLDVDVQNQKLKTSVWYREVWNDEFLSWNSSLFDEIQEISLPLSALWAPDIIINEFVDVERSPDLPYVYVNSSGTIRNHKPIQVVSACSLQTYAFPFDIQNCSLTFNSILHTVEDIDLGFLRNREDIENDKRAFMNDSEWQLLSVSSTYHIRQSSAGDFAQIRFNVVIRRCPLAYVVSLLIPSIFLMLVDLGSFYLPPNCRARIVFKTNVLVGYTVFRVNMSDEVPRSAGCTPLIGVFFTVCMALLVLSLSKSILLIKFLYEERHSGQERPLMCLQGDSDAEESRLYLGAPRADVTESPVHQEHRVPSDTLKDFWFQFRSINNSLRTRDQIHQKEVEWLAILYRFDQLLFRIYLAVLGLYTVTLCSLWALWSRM
UniProt P23979, whole entry, looked up: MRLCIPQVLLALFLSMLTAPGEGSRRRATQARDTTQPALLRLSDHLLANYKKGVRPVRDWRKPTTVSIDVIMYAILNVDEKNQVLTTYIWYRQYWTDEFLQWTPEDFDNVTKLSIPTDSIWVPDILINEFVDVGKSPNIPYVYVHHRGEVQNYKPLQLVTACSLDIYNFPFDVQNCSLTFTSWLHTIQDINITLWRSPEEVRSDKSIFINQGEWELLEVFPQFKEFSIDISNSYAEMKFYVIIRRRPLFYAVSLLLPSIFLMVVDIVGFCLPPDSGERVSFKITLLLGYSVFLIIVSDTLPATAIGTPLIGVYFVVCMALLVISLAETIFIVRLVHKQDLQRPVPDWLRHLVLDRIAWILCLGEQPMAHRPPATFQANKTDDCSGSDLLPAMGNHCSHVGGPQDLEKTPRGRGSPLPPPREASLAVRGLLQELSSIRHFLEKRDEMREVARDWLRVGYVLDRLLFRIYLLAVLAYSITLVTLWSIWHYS

Target: Serotonin 3 receptor (5HT3) (Mus musculus) (UniProt Q9JHJ5+P23979)
Test: Binding affinity towards 5-hydroxytryptamine 3 receptor was determined by using [3H]-ICS 205-930 as radioligand in mouse N1E 115 cells
Assay type: cell-based

COc1cc(N)c(Cl)cc1C(=O)N[C@H]1CCN2CCC[C@@H]1C2
pKD: 8.5
